Experiments:
SIVA2 = SIVA2 protein level in PBMCs, western blotting with anti-SIVA antibody; assay type: cell-based, human; settings: resting PBMCs, ligands for 8 h
Description: (§1) (A) Expression of SIVA1 and SIVA2 in various cell lines. For each cell line, cellular protein (30 μg) was resolved by 13.5% SDS-PAGE and probed with anti-SIVA antibody. The two lanes at the right show SIVA1 and SIVA2 overexpressed in HEK-293T cells (for each protein, 2 μg cDNA/well in 6-well plates). (B) Several SIVA isoforms are expressed in PBMCs. […] (C) Ligand activation increases the amount of SIVA2 in resting PBMCs. Cells (2×10^6) were treated with the indicated ligands for 8 h and the cell lysates were analyzed by western blotting. […] The cells were stimulated with PHA (1 μg/ml) for 48 h, washed twice with phosphate-buffered saline, and incubated for an additional period of 18 h without PHA. […] Semi-quantitative RT-PCR for SIVA message was performed as described in Methods. […] Total-cell lysates were analyzed by western blotting using anti-SIVA antibody. TNF-induced SIVA2 stabilization was assessed in EcR-293-CD27 cells. […] Total-cell lysates were analyzed by western blotting using LDH as the loading control (bottom panel). […] HEK-293T cells were transfected with FLAG-SIVA2 and analyzed 24 h after transfection. […] Cells lysates were analyzed by western blotting using anti-SIVA antibody. Middle: HepG2 cells were exposed to UVC (20 J/m^2) and levels of SIVA proteins were determined after 18 h of treatment. […]

SIVA1 = SIVA1 protein level in PBMCs, western blotting with anti-SIVA antibody; assay type: cell-based, human; settings: resting PBMCs, ligands for 8 h
Description: as §1

## TNF: Tumor necrosis factor, applied to cells at 100 ng/ml
SIVA2
  SIVA2 expression: extensive enhancement
SIVA1
  SIVA1 expression: did not affect

— patent US20110293593A1, “SIVA 2 STABILIZATION” (YEDA RESEARCH AND DEVELOPMENT CO., LTD., priority 2008, published 2011)
